Experimental data taken from patent US10464925B2.

What was measured:
[1] = target: CRBN-DDB1 (Homo sapiens, UniProt Q96SW2); experiment: CRBN-DDB1 Ligand-Displacement AlphaScreen Assay (thalidomide competition);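 note: streptavidin donor and nickel chelate acceptor bead proximity signal after 30 min incubation, normalized with no-protein background as 0% and DMSO wells as 100% activity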
[2] = target: BRD4 (Homo sapiens, UniProt O60885); experiment: BRD4 AlphaScreen; conditions: IC50 (nM) BRD4

Structure (SMILES) | IC50 ([1]; biotin-thalidomide competition) | IC50 [2] | IC50 [1]
CC[C@@H]1C(=O)N(C)c2cnc(Nc3ccc(C(=O)NCCCCCCNC(=O)COc4cccc5c4C(=O)N(C4CCC(=O)NC4=O)C5=O)cc3OC)nc2N1C1CCCC1 (some centres unmarked) [dBET7] |  | 161 nM | 
Cc1sc2c(c1C)C(c1ccc(Cl)cc1)=N[C@@H](CC(=O)NCCCCCCNC(=O)c1ccc3c(c1)C(=O)N(C1CCC(=O)NC1=O)C3=O)c1nnc(C)n1-2 (some centres unmarked) [dBET15] |  | 31 nM | 40.4 nM

Continued, in another order:

IC50 ([1]; biotin-thalidomide competition) | Structure (SMILES) | IC50 [2] | IC50 [1]
14.8 nM | Cc1sc2c(c1C)C(c1ccc(Cl)cc1)=N[C@@H](CC(=O)NCCCOCCOCCOCCCNC(=O)COc1cccc3c1C(=O)N(C1CCC(=O)NC1=O)C3=O)c1nnc(C)n1-2 (some centres unmarked) [dBET9] |  | 
217 nM | Cc1sc2c(c1C)C(c1ccc(Cl)cc1)=N[C@@H](CC(=O)NCCCCCCNC(=O)COc1cccc3c1C(=O)N(C1CCC(=O)NC1=O)C3=O)c1nnc(C)n1-2 (some centres unmarked) [dBET5] | 33 nM | 
10.4 nM | Cc1sc2c(c1C)C(c1ccc(Cl)cc1)=N[C@@H](CC(=O)NCCNC(=O)COc1cccc3c1C(=O)N(C1CCC(=O)NC1=O)C3=O)c1nnc(C)n1-2 (some centres unmarked) [dBET3] | 32 nM | 

Like-named read-outs stand apart in the source and are kept apart here.
